Experimental data published in patent US11013692B2, “Method of drug formulation based on increasing the affinity of crystalline microparticle surfaces for active agents” (MannKind Corporation, priority 2005, dated 2021).
Where two headings read alike, the source gives them in different places.

Assays:
[1] = Solubility of FDKP as a function of pH; type: physicochemical
[2] = Resuspension of dried active agent-coated FDKP microparticles in acid solution or water (filtration, HPLC); type: physicochemical
Experimental: The solvent was filtered from these suspensions and the retained particles were dissolved and collected. The amount of active agent in all of these samples was quantitated by HPLC.
For each of the lots, the active agent was released from the particles in the acidic solution. Therefore, by protonating the surfaces of the microcrystals, the active agent desorbs from the crystal surfaces.

[3] = for Filtrate (unbound protein) concentration: initial conc. 200 μg/mL; for Dissolved Particles protein concentration: material trapped on filter dissolved

Row | Substance | solubility ([1]; around pH 5.0) | solubility in water ([1]; below pH 3.5) | Resuspended in Acidic solution, integrated HPLC peak area ([2]; filtrate, final pH about 2.0, 215 nm) | Resuspended in water, integrated HPLC peak area ([2]; filtrate, final pH about 4.5, 215 nm) | Redissolved after filtering away acidic solution, integrated HPLC peak area ([2]; retained particles dissolved, final pH about 2.0, 215 nm) | Redissolved after filtering away water, integrated HPLC peak area ([2]; retained particles dissolved, final pH about 4.5, 215 nm) | Active Agent Standard solution, integrated HPLC peak area ([2]; standard solution, 215 nm) | Filtrate (unbound protein) concentration ([3]; pH 2.0, no particles (particle-free control)) | Dissolved Particles protein concentration ([3]; pH 2.0, no particles) | Filtrate (unbound protein) concentration ([3]; pH 2.0, with particles (5 mg/mL FDKP)) | Dissolved Particles protein concentration ([3]; pH 2.0, with particles) | Filtrate (unbound protein) concentration ([3]; pH 4.5, no particles (particle-free control)) | Dissolved Particles protein concentration ([3]; pH 4.5, no particles) | Filtrate (unbound protein) concentration ([3]; pH 4.5, with particles (5 mg/mL FDKP)) | Dissolved Particles protein concentration ([3]; pH 4.5, with particles)
1 | (E)-3,6-bis[4-(N-carboxy-2-propenyl)amidobutyl]-2,5-diketopiperazine [FDKP] | about 1 mg/mL | essentially insoluble | – | – | – | – | – | – | – | – | – | – | – | – | –
2 | growth hormone | – | – | 240 mAU * sec | 0 mAU * sec | 0 mAU * sec | 191 mAU * sec | 250 mAU * sec | 181 µg/mL | 0 µg/mL | 146 µg/mL | 0 µg/mL | 145 µg/mL | 0 µg/mL | 0 µg/mL | 180 µg/mL
